Results: US20130005651A1, “DEATH ASSOCIATED PROTEIN 1 VARIANTS AND USE THEREOF FOR MODULATING AUTOPHAGY” (YEDA RESEARCH AND DEVELOPMENT CO. LTD., priority 2010, published 2013)

What was measured:
mTOR [1] = target: T1, mTOR (Homo sapiens, UniProt P42345); type: cell-based
T1 construct: endogenous in cells; host or cells: HeLa

mTOR [2] = target: T1, mTOR; test: In vitro kinase assay for mTOR activity; type: biochemical; conditions: mTOR immunoprecipitated from HEK293T cells, Torin1 50 nM, 20 min at 30° C.

CCC(=O)N1CCN(c2ccc(-n3c(=O)ccc4cnc5ccc(-c6cnc7ccccc7c6)cc5c43)cc2C(F)(F)F)CC1 [Torin1]
phospho-Ser51 signal of DAP1 (mTOR [1]): decline | phosphorylation of p70S6K (Thr389), positive control (mTOR [1]): similarly affected | shift of DAP1 to the fast migrating form indicative of dephosphorylation of Ser3 (mTOR [1]): typical shift of DAP1 to the fast migrating form | phosphorylation of GST-4E-BP1 (Thr 37/46) by mTOR (mTOR [2]): attenuated | phosphorylation of His-DAP1 on Ser51 by mTOR (mTOR [2]; anti-phospho-Ser51 antibody): attenuated
